US20090298811A1, “BENZIMIDAZOLONE DERIVATIVES” (Pfizer Inc, priority 2006, published 2009)

Sequences of proteins named here, by UniProt entry; tags and fusion partners are left off.
UniProt P21554, whole entry: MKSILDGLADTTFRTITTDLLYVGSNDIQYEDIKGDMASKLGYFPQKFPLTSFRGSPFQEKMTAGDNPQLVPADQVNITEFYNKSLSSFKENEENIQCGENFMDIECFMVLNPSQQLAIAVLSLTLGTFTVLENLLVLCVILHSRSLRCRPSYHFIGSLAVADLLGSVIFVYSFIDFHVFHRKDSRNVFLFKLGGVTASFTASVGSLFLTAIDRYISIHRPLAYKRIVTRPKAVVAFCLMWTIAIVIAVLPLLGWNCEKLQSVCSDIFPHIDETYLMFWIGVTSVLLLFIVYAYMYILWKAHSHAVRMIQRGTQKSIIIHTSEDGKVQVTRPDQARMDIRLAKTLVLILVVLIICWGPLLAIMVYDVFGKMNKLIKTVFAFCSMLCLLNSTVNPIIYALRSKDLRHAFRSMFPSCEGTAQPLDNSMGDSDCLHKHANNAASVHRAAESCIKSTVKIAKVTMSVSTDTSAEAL

Assays:
[1] = target: T1, human CB1 receptor (Homo sapiens, UniProt P21554); assay: GTPγS binding on membranes of CHO cells expressing the human CB1 receptor; settings: read-out: GTPγS EC50, CHO cell membranes, [35S] GTPγS
Procedure: Membrane preparation: CHO cells expressing the human CB1 receptor were grown to 80% confluence in Ham's F-12 Nutrient Medium (Invitrogen) containing 10% fetal bovine serum (Invitrogen), 1% pen/strep (Invitrogen), 1% Nonessential amino acids (Invitrogen) and 500 μg/ml G418 (Invitrogen). Cells were released from flasks using Cell Dissociation Buffer (Invitrogen). Cells were pelleted by centrifugation at 500×G for 5 minutes. Membranes were prepared by resuspending cells in ice cold Assay Buffer (25 mM Tris pH 7.4, 5 mM EDTA, 5 mM EGTA, Complete Protease Inhibitor (Roche)). Cells were lysed with 12 strokes of a dounce homogenizer. Unlysed cells were pelleted by centrifugation at 500×G for 5 minutes. Membranes were pelleted by centrifugation at 25,000×G for 30 minutes. Membranes were resuspended in TEE, dounced 12 strokes, and pelleted a second time at 25,000×G for 30 minutes. Membrane pellet was resuspended in 50 mM Tris pH 7.4, 100 mM NaCl, 3 mM MgCl2, 0.2 mM EGTA, Complete Protease Inhibitor (Roche). Protein concentration was determined using the Micro-BCA Protein Assay Kit (Pierce) using BSA as a standard. […] 40 μl of Microscint-20 (Perkin Elmer) was added per well, and plates were counted using a Top-Count Microplate Scintillation Counter (Perkin Elmer). Binding data were analyzed and EC50 values were calculated using Graph Pad Prism 4.0 Software.

[2] = target: T1, human CB1 receptor; assay: Human CB1 receptor binding, [3H] CP-55,940 displacement on HEK cell membranes; settings: read-out: CB1 Ki, [3H] CP-55,940 500 pM
Procedure: The Human CB1 receptor binding affinity and other biological activities of the compounds of this invention are determined by the following procedures.
Membrane preparation: Human Embryonic Kidney (HEK) Cells expressing the human CB1 receptor under transcriptional regulation of a tetracycline inducible promoter were grown in Dulbecco's Modified Essential Medium with sodium pyruvate (Invitrogen, Carlsbad, Calif.) containing 10% tetracycline free fetal bovine serum (Clonetech, Mountain View, Calif.) 100 μg/ml hygromycin (Calbiochem, San Diego, Calif.), 5 μg/ml blasticidin (Invitrogen). CB1 receptor expression was induced by addition of 1 μg/ml doxycycline (Calbiochem) and incubation for an additional 24 hours. Cells were released from flasks using Cell Dissociation Buffer (Invitrogen). Cells were pelleted by centrifugation at 500×G for 5 minutes. […] Protein concentration was determined using the Micro-BCA Protein Assay Kit (Pierce, Rockford, Ill.) using BSA as a standard. […] Nonspecific binding was determined by incubation with 50 μM WIN-55,212-2 (Tocris, Ellisville, Mo.). […] 40 μl of Microscint-20 (Perkin Elmer) was added per well, and plates were counted using a Top-Count Microplate Scintillation Counter (Perkin Elmer). Binding data were analyzed and EC50 and Ki values calculated using Graph Pad Prism 4.0 Software.

SMILES	EC50 [1]	Ki [2]
Cc1ccc2c(c1)n(CC1CCCCC1)c(=O)n2C(=O)N[C@@H](CC(C)C)C(N)=O	399 nM	17.2 nM
CC(C)(C)[C@H](NC(=O)n1c(=O)n(CCCC2CC2)c2ccccc21)C(N)=O	13.5 nM	1.8 nM
